Source: article PMC4640659, “Antidepressant- and Anxiolytic-Like Effects of New Dual 5-HT1A and 5-HT7 Antagonists in Animal Models” (PLoS ONE, 2015)

Chains of the proteins cited; added tags and fusions are not shown.
UniProt P34969, whole entry: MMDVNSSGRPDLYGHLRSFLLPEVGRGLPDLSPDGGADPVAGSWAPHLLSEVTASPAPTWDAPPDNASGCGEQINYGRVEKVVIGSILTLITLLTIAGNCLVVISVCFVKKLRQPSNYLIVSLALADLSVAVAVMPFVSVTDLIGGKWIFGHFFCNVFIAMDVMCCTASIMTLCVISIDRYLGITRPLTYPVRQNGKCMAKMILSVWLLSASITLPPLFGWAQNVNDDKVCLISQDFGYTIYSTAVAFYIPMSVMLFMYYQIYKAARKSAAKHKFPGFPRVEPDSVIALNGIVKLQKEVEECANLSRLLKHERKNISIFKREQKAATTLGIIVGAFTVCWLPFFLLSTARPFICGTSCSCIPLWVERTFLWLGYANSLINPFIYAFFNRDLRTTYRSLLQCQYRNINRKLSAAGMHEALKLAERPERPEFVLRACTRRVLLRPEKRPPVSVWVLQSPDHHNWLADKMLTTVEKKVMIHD

Biological target: human serotonin 5-HT7 receptor (Homo sapiens, UniProt P34969)
Assay: cAMP functional assay (LANCE Ultra TR-FRET), CHO-K1 cells
Conditions: mean of two independent experiments in duplicate

Agonist mode Emax: 4%
SMILES: CC1CCN(CC[C@H]2CCCN2S(=O)(=O)c2cccc(O)c2)CC1 [SB 269970, reference compound]
